The numbers were not newly measured in article PMC3121697, “Predicting Binding to P-Glycoprotein by Flexible Receptor Docking” (PLoS Computational Biology, 2011), which cites them from elsewhere.

The data set concerns P-gp. As to conditions: cited from earlier work.

The structures appear in SMILES notation. Read-outs that look alike come from different tables or passages of the source.

Take `CC(C)CN(C[C@@H](O)[C@H](Cc1ccccc1)NC(=O)O[C@H]1CCOC1)S(=O)(=O)c1ccc(N)cc1` [Amprenavir]: the P-gp interaction result (not told) is recorded as “Y”.

Turning to `CCOC(=O)c1ncn2c1CN(C)C(=O)c1cc(F)ccc1-2` [Flumazenil], the P-gp interaction result (not told) is listed as “N”.

For `Cc1nc2n(c(=O)c1CCN1CCC(c3noc4cc(F)ccc34)CC1)CCCC2` [Risperidone], the P-gp interaction entry is given as “Y”.
